# AlphaSeq binding of Ab-14 heavy chain variants to a spike HR2 peptide

Reference: Li et al. 2023, doi:10.1038/s41467-023-39022-2. File: FLAb, binding data.

All variants were tested on one target, the spike HR2 peptide PDVDLGDISGINAS (SARS-CoV-2).

Parent: Ab-14, a human scFv built as VH, a 15-residue (Gly4Ser)3 linker, VL. Only the CDRs of the heavy chain vary.
VH: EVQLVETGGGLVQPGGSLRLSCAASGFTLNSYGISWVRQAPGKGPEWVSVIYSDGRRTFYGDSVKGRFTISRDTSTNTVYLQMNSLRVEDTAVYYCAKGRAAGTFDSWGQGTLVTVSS
VL: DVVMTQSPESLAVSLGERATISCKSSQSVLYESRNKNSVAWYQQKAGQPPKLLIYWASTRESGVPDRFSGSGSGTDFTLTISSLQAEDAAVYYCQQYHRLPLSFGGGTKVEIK

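Phage display of a naive human antibody library on the peptide gave the parent. The variants were designed computationally from a first round of random CDR variants and then made and measured. Their group label is 14H_GP_Gibbs (GP: Gaussian process model; Gibbs: Gibbs sampling; a sequence that several methods proposed may carry one label only). The scFvs were displayed on barcoded MATa yeast, the peptide on MATalpha yeast. After mating in shaken culture at 30 °C for 16 h, diploids were selected and their barcode pairs sequenced. Each replicate has its own calibration line, from reference interactions of the BCL2 family. There are six technical replicates.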

The parent's heavy chain CDRs are GFTLNSYGIS, VIYSDGRRTFYGDSVK, GRAAGTFDS; each variant's own CDRs replace them letter for letter.
Scale: log10 of Kd in nM, estimated from mating counts; low values are strong binders.
"nd" means that the variant was in the library but no mating with the target was seen in that replicate; the authors take this as a sign of poor binding, and no number exists.
Three control strains display no target. For all heavy chain designs, 1% of the pairings with them gave a signal, with a median of 2.08 and one signal in twenty below 0.84, so weak values seen in few replicates may be background. Also given: how often the same scFv was detected with the empty control strains, with their mean in brackets.

CDR-H1 | CDR-H2 | CDR-H3 | log10 Kd, replicates | signal with controls
GFELNSYGIS | VIYSDGRRTFYGDSVK | GKSAGTFDS | nd / nd / 1.11 / nd / 1.42 / 1.60 | 0 of 18
GFSLNSYGIS | VIYSDGRRTFYGDAVK | GRTAGTFWS | nd / nd / nd / nd / nd / nd | 0 of 18
GFELNSYGIS | VIYSDGRRTFYGDDVK | GNVAGTFDK | 0.55 / 0.84 / 0.55 / 1.35 / 1.38 / 1.03 | 1 of 18 (1.48)
GFPLNEYGIS | VIYSDGRRTFYGDSVK | GRQAGTFDT | 0.59 / 0.11 / 0.24 / 0.41 / 0.25 / 0.88 | 0 of 18
GFALNEYGIS | VIYSDGRRTFYQDSVK | GRAAGTFDS | 0.67 / 0.65 / 0.15 / 0.29 / 0.60 / 0.78 | 0 of 18
GFDLNSYGIS | VIYSDGRRTFYSDSVK | GKHAGTFDS | nd / nd / nd / nd / nd / nd | 0 of 18
GFNLNSYGIS | VIYSDGRRTFYADPVK | GQAAGTFDN | 1.37 / 1.50 / 1.66 / 1.84 / 1.38 / 1.40 | 0 of 18
GFELNDYGIS | VIYSDGRRTFYGDSVK | GKTAGTFDT | 0.00 / -0.29 / -0.15 / -0.35 / -0.06 / -0.30 | 0 of 18
GFDLNSYGIS | VIYSDGRRTFYDDMVK | GKAAGTFDS | nd / 2.37 / 0.56 / 1.25 / 0.80 / 2.16 | 0 of 18
GFDLNCYGIS | VIYSDGRRTFYGDSVK | GEAAGTFDK | nd / nd / 1.26 / nd / nd / 1.05 | 0 of 18
MFDLNSYGIS | VIYSDGRRTFYGDSVK | GRTAGTFDD | nd / 1.43 / 1.88 / nd / 0.83 / 1.58 | 0 of 18
GFTLESYGIS | VIYSDGRRTFYADRVK | GRAAGTFDV | 1.73 / 1.83 / 1.48 / 3.29 / 2.92 / 2.54 | 3 of 18 (2.54)
GFALNEYGIS | VIYSDGRRTAYGDSVK | GRAAGTFDS | 0.36 / 0.20 / -0.03 / 0.09 / 0.17 / 0.09 | 1 of 18 (2.41)
GFVLNSYGIS | VIYSDGRRTFYVDSVK | GKTAGTFDT | nd / 1.11 / nd / nd / nd / nd | 1 of 18 (0.87)
GFQLNTYGIS | VIYSDGRRTFYVDSVK | GKAAGTFDS | nd / nd / 1.23 / 1.47 / nd / nd | 0 of 18
GFSLNSYGIS | VIYSDGRRTFYGDPVK | GKQAGTFDS | 1.36 / nd / 1.70 / nd / 1.70 / 1.53 | 0 of 18
MFDLNSYGIS | VIYSDGRRTFYGDSVK | GREAGTFDV | nd / nd / 0.07 / nd / 1.05 / nd | 0 of 18
GFWLNEYGIS | VIYSDGRRTFYQDSVK | GRQAGTFDS | 2.49 / 1.51 / 0.78 / 0.95 / 1.17 / 1.49 | 2 of 18 (3.51)
GFSLNSYGIS | VIYSDGRRTFYIDTVK | GNAAGTFDS | -0.11 / 0.64 / 0.37 / 0.05 / -0.04 / 0.57 | 1 of 18 (1.78)
GFVLNDYGIS | VIYSDGRRTFYTDSVK | GRTAGTFDS | nd / 0.56 / 0.12 / 0.68 / 2.13 / nd | 0 of 18
GFELNSYGIS | VIYSDGRRTFYTDDVK | GNTAGTFDS | 0.54 / 0.07 / -0.11 / 0.34 / 0.98 / 0.25 | 0 of 18
GFQLNSYGIS | VIYSDGRRTFYKDQVK | GQTAGTFDS | nd / nd / nd / nd / 2.18 / nd | 0 of 18
GFELNSYGIS | VIYSDGRRTFYVDSVK | GRTAGTFDA | 1.07 / 0.63 / 0.57 / 0.63 / 0.16 / 0.89 | 0 of 18
GFSLNSYGIS | VIYSDGRRTFYQDSVK | GKVAGTFDS | 0.43 / 0.80 / 0.95 / 0.64 / 0.03 / 0.29 | 0 of 18
GFELNSYGIS | VIYSDGRRTFYVDSVK | GRVAGTFDT | 0.84 / 1.86 / 0.20 / 0.82 / 0.40 / 0.27 | 0 of 18
GFELNSYGIS | VIYSDGRRTFYDDSVK | GSTAGTFDS | -0.18 / -0.24 / -0.28 / -0.36 / -0.34 / 0.07 | 1 of 18 (2.89)
YFSLNEYGIS | VIYSDGRRTFYGDSVK | GRMAGTFDS | nd / 0.77 / 1.55 / nd / 2.01 / nd | 0 of 18
GFKLNSYGIS | VIYSDGRRTFYTDSVK | GKAAGTFDS | nd / 2.93 / 0.91 / nd / nd / nd | 0 of 18
GFVLNEYGIS | VIYSDGRRTFYIDSVK | GKAAGTFDS | 0.61 / 1.39 / 1.63 / 2.08 / 1.76 / 2.35 | 1 of 18 (1.56)
GFDLNSYGIS | VIYSDGRRTFYGDDVK | GRNAGTFDT | -0.16 / -0.01 / 0.05 / 0.17 / -0.03 / 0.03 | 0 of 18
GFSLNEYGIS | VIYSDGRRTFYMDSVK | GRTAGTFWS | nd / nd / nd / nd / nd / nd | 0 of 18
GFTLNSYGIS | VIYADGRRTFYGDSVK | GETAGTFDV | -0.24 / -0.25 / -0.26 / -0.37 / -0.32 / -0.16 | 0 of 18
GFNLNSYGIS | VIYSDGRRTFYGDNVK | GKQAGTFDS | 1.50 / nd / 1.81 / 0.10 / 2.01 / 2.36 | 0 of 18
GFTLDSYGIS | VIYSDGRRTFYKDSVK | GKAAGTFDS | 1.07 / 0.40 / 1.52 / 0.11 / 0.26 / 0.99 | 2 of 18 (2.53)
GFWLNSYGIS | VIYSDGRRTFYKDSVK | GQAAGTFDS | nd / nd / nd / nd / nd / nd | 0 of 18
GFHLNSYGIS | VIYSDGMRTFYKDSVK | GRTAGTFDS | 1.31 / 1.11 / 2.67 / 1.09 / 2.07 / 0.62 | 1 of 18 (1.62)
GFCLNEYGIS | VIYSDGRRTFYHDSVK | GKAAGTFDS | nd / nd / nd / 1.12 / 0.47 / 0.84 | 0 of 18
KFSLNSYGIS | VIYSDGRRTFYIDSVK | GRMAGTFDS | nd / nd / nd / nd / nd / nd | 0 of 18
GFSLNSYGIS | VIYSDGRRTFYGDEVK | GKTAGTFDS | 0.68 / 1.06 / 0.05 / 0.95 / 0.96 / 0.80 | 0 of 18
GFTLNSYGIS | VIYSDGRRTFYSDSVK | GEVAGTFDT | 0.43 / -0.10 / -0.28 / 0.05 / -0.18 / 0.32 | 0 of 18
GFSLNDYGIS | VIYSDGRRTFYGDAVK | GKAAGTFDS | 0.60 / 0.56 / 0.52 / 0.42 / 0.15 / 0.19 | 0 of 18
GMDLNSYGIS | VIYSDGRRTFYSDQVK | GRTAGTFDS | 0.04 / -0.55 / -0.28 / -0.42 / -0.49 / 0.13 | 0 of 18
GFELNSYGIS | VIYSDGRRTFYADDVK | GVNAGTFDS | 0.92 / 0.86 / 1.16 / 0.52 / 0.58 / 1.02 | 1 of 18 (1.63)
GFSLNNYGIS | VIYSDGRRTFYHDSVK | GRVAGTFDS | 0.38 / 0.08 / 0.27 / 0.07 / 0.35 / 0.44 | 2 of 18 (2.81)
GFGLNSYGIS | VIYSDGRRTFYIDEVK | GRTAGTFDS | nd / 0.37 / nd / 1.03 / 0.68 / 0.79 | 0 of 18
GFSLKSYGIS | VIYADGRRTFYGDNVK | GRTAGTFDS | 0.24 / 0.44 / 0.01 / 0.30 / 0.15 / 0.46 | 0 of 18
GFTLNEYGIS | VIYSDGRRTFYGDSVK | GRQAGTFES | nd / 1.85 / nd / 1.88 / 1.15 / 2.25 | 1 of 18 (2.09)
NFSLNSYGIS | VIYSDGRRTFYTDSVK | GQTAGTFDS | nd / nd / nd / nd / nd / nd | 0 of 18

Repeated from above, the 4 best binders with a signal in all replicates:

| CDR-H1 | CDR-H2 | CDR-H3 | log10 Kd, replicates | signal with controls |
|---|---|---|---|---|
| GFTLNSYGIS | VIYADGRRTFYGDSVK | GETAGTFDV | -0.24 / -0.25 / -0.26 / -0.37 / -0.32 / -0.16 | 0 of 18 |
| GMDLNSYGIS | VIYSDGRRTFYSDQVK | GRTAGTFDS | 0.04 / -0.55 / -0.28 / -0.42 / -0.49 / 0.13 | 0 of 18 |
| GFELNSYGIS | VIYSDGRRTFYDDSVK | GSTAGTFDS | -0.18 / -0.24 / -0.28 / -0.36 / -0.34 / 0.07 | 1 of 18 (2.89) |
| GFELNDYGIS | VIYSDGRRTFYGDSVK | GKTAGTFDT | 0.00 / -0.29 / -0.15 / -0.35 / -0.06 / -0.30 | 0 of 18 |

The authors averaged sequences with at least three values out of six and counted those with two or fewer as poor binders.
Values of this round are not directly comparable with the first-round values of the same sequences.
Of ten entries with the parent sequence, four were seen in most replicates (averages 0.34 to 2.37), three in one and three in none, so single entries are noisy.